Source: PubChem BioAssay
In the library only some 3.7% were active in any assay of this set; here they are far more common.
A549 tox – A549 cytotoxicity, counter-screen for Nrf2 inhibitors | A549 ARE-Fluc cells, CellTiter-Fluor viability, 18-24 h | Potency, µM (top dose mostly 46 µM), without a hit: at the top dose activity change, negative = cytotoxicity, most hits filed as inhibitors | actives 0.16% (n = 390,000) | AID 504648; further: potency means the concentration at half of the fitted maximal effect; on the % scale 0 is the no-effect control and ±100 the full control effect
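A549 ARE-Fluc cells in 5% FBS OPTI-MEM, 5000 cells/well, rested 2 h then exposed to compounds in concentration-response for 18-24 h at 37 °C. Viability by CellTiter-Fluor fluorescence (Ex 405/Em 525) after 30 min; luciferase luminescence (BugLite, 15 min, RT) read afterwards.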
Nrf2 inh – blocks Nrf2 signaling. A549 ARE-Fluc reporter, luciferase luminescence, 18-24 h. Potency, µM (highest dose often 46 µM), for inactives: at the highest dose activity change, negative = inhibition, usual class: inhibitors. actives 2.1% (n = 360,000); further: potency means the concentration at half of the fitted maximal effect; on the % scale 0 is the no-effect control and ±100 the full control effect; nearly all actives have a fitted effect of over 60% in size
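Nrf2 activity is the BugLite luminescence, read 15 min after reagent at room temperature, following CellTiter-Fluor cytotoxicity readout (30 min, 37C). Compound titrations were applied for 18-24 h to 5000 A549 ARE_Fluc cells/well in 5% FBS OPTI-MEM.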
p53 reactivator – restores transcriptional activity of mutant p53; H1299 p53-A138V BP100-luciferase reporter, luminescence, 24 h; Potency, µM (doses to about 92.2 µM), for inactives: at the top dose activity change, positive = activation, most hits filed as activators; actives 0.063% (n = 320,000); further: potency means the concentration at half of the fitted maximal effect; % of control where 0% means no effect; nearly all actives have a fitted effect of over 45% in size
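H1299 (p53-null), stable ts p53-A138V + BP100-Luc; 1000 cells/well, Opti-MEM/10% FBS; cpd 4 pt, 1:5; 24 h, 37 deg C, 5% CO2; detection reagent 10 min RT; luminescence.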
miR-21 reporter – miR-21 reporter, rising signal. HeLa miR-21 FLuc reporter, luciferase, 48 h. Potency, µM (highest dose often 38.3 µM), for the others: at the highest dose reporter change, positive = more light. 340,000 tested, under 10 active. AID 2288; active = well fitted rising curve with a large enough effect; inconclusive = small, poorly fitted or top-dose-only effect; inactive = no such curve, though single readings can be large or run the other way;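 further: % of control where 0% means no effect; miR-21 action dims this reporter so a rising signal means less miR-21 action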
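HeLa miR-21-FLuc reporter line, endogenous miR-21; 2000 cells/well in DMEM/10% FBS; compound titration up to ~40uM final, 48 h, 37 degree Celsius; luciferase detection reagent, 15 min lysis, CCD luminescence.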
Nrf2 ARE act – Nrf2 pathway activation; actives 0.31% (n = 410,000); AREc32 ARE-luciferase reporter (MCF7-derived line), luminescence, 24 h; Potency, µM (series often up to 46.1 µM), for the others: top-dose activation, hits mostly activators; further: potency means the concentration at half of the fitted maximal effect; % of control where 0% means no effect; nearly all actives have a fitted effect of over 65% in size
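ARE activation measured as luciferase luminescence (Steady-Glo, 30 min RT) in AREc32_Fluc cells after 24 hr compound exposure at 37 deg C, 5% CO2; cells seeded overnight at 1000/well in OPTI-MEM, 5% FBS.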
ClpP mod – qHTS Assay for Activators of ClpP. purified B. subtilis ClpP, FRET peptide cleavage, 20 min. AID 651965, 2013. actives 1.9% (n = 340,000). Potency, µM (top dose mostly 57.5 µM), without a hit: at the top dose activity change, negative = active. ATP-dependent Clp protease proteolytic subunit (Bacillus subtilis (strain 168)), P80244; active means well fitted falling curve with a large enough effect; inconclusive means small, poorly fitted or top-dose-only effect; inactive means no such curve, though single readings can be large or run the other way; further: potency means the concentration at half of the fitted maximal effect; the source files actives as falling curves though it sought activators and does not explain the sign; nearly all actives have a fitted effect of over 65% in size
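FRET quenching reversal measured ClpP activation: 10 microg/mL B. subtilis ClpP at pH 8 with the FRET-FV decapeptide, read at 430 nm after 320 nm excitation. The 20-min minus 0-min signal was scaled between DMSO/no-enzyme wells and ADEP (5.8 microM final).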
Active calls of the source: *; u = inconclusive; x = no result; [ ] = dose if it differs, or a comment. Unless noted, the call rests on the fitted dose curve; in most records, active means well fitted curve in the direction sought with a large enough effect; inconclusive means small, poorly fitted or top-dose-only effect, or another doubt; inactive means no such curve, though single readings can be large; an effect the other way counts as inactive or inconclusive.

Protein sequences, listed by entry. Tags and fused reporters are not part of them.
ATP-dependent Clp protease proteolytic subunit (Bacillus subtilis (strain 168)), P80244, UniProt P80244, whole entry, looked up: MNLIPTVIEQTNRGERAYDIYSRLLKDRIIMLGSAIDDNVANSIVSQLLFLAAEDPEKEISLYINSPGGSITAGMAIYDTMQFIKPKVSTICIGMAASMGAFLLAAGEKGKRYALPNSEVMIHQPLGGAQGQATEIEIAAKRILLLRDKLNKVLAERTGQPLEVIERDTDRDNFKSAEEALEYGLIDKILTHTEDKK

A first look (two entries):
SMILES	A549 tox	Nrf2 inh	p53 reactivator	miR-21 reporter	Nrf2 ARE act	ClpP mod
CCOc1ccc(CCNC(=O)C2CCCN(c3nnc(C)c4c(C)n(-c5ccccc5)nc34)C2)cc1 (stereo not given)	-27.1%	-20.5%	x	24.9%	5.2%	3.8%
COc1ccc2oc3cc(Cl)ccc3c(=O)c2c1	x	x	x	x	7.94µM*	4.6%

This part in full, from the start:
SMILES	A549 tox	Nrf2 inh	p53 reactivator	miR-21 reporter	Nrf2 ARE act	ClpP mod
CCOc1ccc(CCNC(=O)C2CCCN(c3nnc(C)c4c(C)n(-c5ccccc5)nc34)C2)cc1 (stereo not given)	-27.1%	-20.5%	x	24.9%	5.2%	3.8%
COc1ccc2oc3cc(Cl)ccc3c(=O)c2c1	x	x	x	x	7.94µM*	4.6%
COC(=O)c1cc2c(=O)c3ccccc3oc2nc1C	-0.2%	u	18.3%	-32.5%	7.94µM*	-0.4%
COc1cc2oc3ccccc3c(=O)c2cc1OC	-1.2%	6.8%	10.5%	-26.0%	10µM*	4.2%
N#Cc1ccccc1C[C@H](N)C(=O)NC[C@H]1O[C@@H](n2ccc(N)nc2=O)[C@H](O)[C@@H]1O	x	x	x	x	-0.5%	-5.3%
CN(C)c1ccc(CNC(=O)C2CCN(Cc3cc4ccccc4n3Cc3ccccc3)CC2)cc1	-11.6%	x	x	u	3.9%	-24.9%
O=C(COC(=O)/C=C/c1ccco1)Nc1ccc(F)cc1Cl	1.2%	21.7%	4.4%	-6.1%	3.16µM*	x
O=C(NCCn1cc(SCc2ccccc2)c2ccccc21)c1cccs1	-2.0%	u	x	29.7%	-0.2%	-5.7%
O=C(NCCn1cc(SCc2ccccc2Cl)c2ccccc21)c1cccs1	-2.0%	16.4µM*	x	11.4%	-0.4%	-2.3%
O=C(CN1c2ccccc2Sc2ccccc21)NNC(=S)Nc1ccc(Cl)cc1	-2.9%	-29.5%	-1.4%	9.3%	-0.3%	25.1µM*
COC(=O)c1ccc(OC)c(Cn2c(=O)n(-c3ccc(C)cc3)c(=O)c3c2cnn3C)c1	-7.3%	-5.0%[9.27 µM]	x	-1.2%	-1.0%	-1.6%
COc1ccccc1C(=O)NCC[N+](C)(C)C	x	x	x	x	-0.3%	-1.2%
CSc1nc(N)c(C#N)c(-c2ccc(Cl)cc2)c1C#N	u	x	-19.5%	4.0%	7.1%	13.4%
Cc1ccc2c(n1)sc1c(-c3ccc(Br)cc3)c(C#N)c(N)nc12	u	20.6µM*	-3.0%	-5.8%	4.2%	-21.5%
O=C(O)c1cc(Cl)c2ccccc2c1O	-7.3%	7.0%	8.7%	1.2%	3.0%	28.2µM*
COc1ccc(-n2ccnc2SCC(=O)Nc2cccc(OC)c2)cc1	7.2%	x	x	8.0%	0.5%	-2.3%
CCN(Cc1nc2ccccc2c(=O)[nH]1)C(=O)COc1ccccc1Cc1ccccc1	-14.6%	16.4µM*	-1.9%	x	1.5%	x
CCOCCCNC(=S)N(Cc1ccccc1)Cc1nc2ccccc2c(=O)[nH]1	0.3%	u	-13.1%	-0.2%	0.1%	0.3%
COCC(=O)N(CCc1ccc(OC)cc1)Cc1nc2ccccc2c(=O)[nH]1	-8.3%	-4.0%	4.6%	-2.2%	0.1%	-0.1%
CCCNC(=S)N(Cc1ccccc1)Cc1nc2ccccc2c(=O)[nH]1	-8.4%	u	-3.1%	-5.1%	0.4%	28.2µM*
CCCC(=O)N(CCc1ccc(OC)cc1)Cc1nc2ccccc2c(=O)[nH]1	-8.3%	23.1µM*	0.3%	10.8%	-0.6%	-3.5%
Cc1ccc(-c2nc(NC(=O)c3cc(C(C)(C)C)nn3C)sc2C)cc1Cl	-5.5%	20.6µM*	3.3%	2.0%	0.3%	-0.1%
CC(C)C1C(=O)N(Cc2cn(CCC3OCCO3)nn2)CCS(=O)(=O)N1Cc1ccc(-c2ccc(F)cc2)cc1 (stereo not given)	x	x	x	x	-0.1%	0.5%
COc1ccc(NC(=O)Cn2c(=O)n(CCCC(=O)NCc3ccccc3Cl)c(=O)c3ccccc32)c(OC)c1	3.9%	u	x	14.8%	-0.6%	-3.8%
O=C(Oc1cccc(Nc2ncnc3ccccc23)c1)c1ccccc1Cl	u	u	26.9%	-10.2%	-0.2%	31.6µM*
Fc1cccc2sc(Nc3nc4cc5c(cc4s3)OCO5)nc12	16.0%	u	u	-66.6%	u	14.1µM*
Fc1cccc2sc(Nc3nc4cc5c(cc4s3)OCCO5)nc12	13.5%	u	u	-60.4%	u	288.3%

An excerpt from above in order of SMILES length, ascending:
SMILES	A549 tox	Nrf2 inh	p53 reactivator	miR-21 reporter	Nrf2 ARE act	ClpP mod
COc1ccc(-n2ccnc2SCC(=O)Nc2cccc(OC)c2)cc1	7.2%	x	x	8.0%	0.5%	-2.3%
O=C(Oc1cccc(Nc2ncnc3ccccc23)c1)c1ccccc1Cl	u	u	26.9%	-10.2%	-0.2%	31.6µM*
CC(C)C1C(=O)N(Cc2cn(CCC3OCCO3)nn2)CCS(=O)(=O)N1Cc1ccc(-c2ccc(F)cc2)cc1 (stereo not given)	x	x	x	x	-0.1%	0.5%
